These results are taken from ChEMBL document CHEMBL1131894, “N-phenylalkyl-substituted tropane analogs of boat conformation with high selectivity for the dopamine versus serotonin transporter” (Bioorg Med Chem Lett, 1999).

Sequences of proteins named here, by UniProt entry; tags and fusion partners are left off.
UniProt P31652, whole entry: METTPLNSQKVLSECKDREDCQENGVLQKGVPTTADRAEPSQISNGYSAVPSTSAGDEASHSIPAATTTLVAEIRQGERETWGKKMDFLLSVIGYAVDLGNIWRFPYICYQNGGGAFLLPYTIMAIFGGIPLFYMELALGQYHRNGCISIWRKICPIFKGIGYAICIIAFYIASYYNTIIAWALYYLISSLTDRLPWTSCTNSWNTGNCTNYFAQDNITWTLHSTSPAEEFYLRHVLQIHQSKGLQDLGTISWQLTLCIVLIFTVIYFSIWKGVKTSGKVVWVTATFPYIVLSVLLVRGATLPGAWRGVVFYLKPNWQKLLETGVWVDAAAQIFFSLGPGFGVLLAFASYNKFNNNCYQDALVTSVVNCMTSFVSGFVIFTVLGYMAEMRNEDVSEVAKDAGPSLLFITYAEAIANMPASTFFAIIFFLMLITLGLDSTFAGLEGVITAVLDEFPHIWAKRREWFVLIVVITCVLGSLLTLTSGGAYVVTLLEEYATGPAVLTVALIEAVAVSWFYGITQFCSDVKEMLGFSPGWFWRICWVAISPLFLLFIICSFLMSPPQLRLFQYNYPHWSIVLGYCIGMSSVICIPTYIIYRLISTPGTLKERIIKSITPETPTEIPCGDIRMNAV

pKi: −log10 of the molar value.

The target of this experiment is Sodium-dependent serotonin transporter (Rattus norvegicus, UniProt P31652). Put plainly: Inhibition of [3H]5-HT uptake at striatal nerve endings by serotonin transporter.

Turning to `COC(=O)[C@H]1[C@@H](OC(=O)c2ccccc2)C[C@@H]2CC[C@H]1N2C` [COCAINE], the pKi is 6.80.
